Sequences and labels used below:
B1: Rab8A WT (full length, nonprenylated), loaded with GTP or GDP (natural protein, human, UniProt P61006 1-207, looked up)
chain: MAKTYDYLFKLLLIGDSGVGKTCVLFRFSEDAFNSTFISTIGIDFKIRTIELDGKRIKLQIWDTAGQERFRTITTAYYRGAMGIMLVYDITNEKSFDNIRNWIRNIEEHASADVEKMILGNKCDVNDKRQVSKERGEKLALDYGIKFMETSAKANINVENAFFTLARDIKAKMDKKLEGNSPQGSNQGVKITPDQQKRSSFFRCVLL
B2: mNeon PPM1H (full-length PPM1H with mNeon inserted into loop 1 at position 125) (enzyme, human, UniProt Q9ULR3 1-514, looked up)
chain: MLTRVKSAVANFMGGIMAGSSGSEHGGGSCGGSDLPLRFPYGRPEFLGLSQDEVECSADHIARPILILKETRRLPWATGYAEVINAGKSTHNEDQASCEVLTVKKKAGAVTSTPNRNSSKRRSSLPNGEGLQLKENSESEGVSCHYWSLFDGHAGSGAAVVASRLLQHHITEQLQDIVDILKNSAVLPPTCLGEEPENTPANSRTLTRAASLRGGVGAPGSPSTPPTRFFTEKKIPHECLVIGALESAFKEMDLQIERERSSYNISGGCTALIVICLLGKLYVANAGDSRAIIIRNGEIIPMSSEFTPETERQRLQYLAFMQPHLLGNEFTHLEFPRRVQRKELGKKMLYRDFNMTGWAYKTIEDEDLKFPLIYGEGKKARVMATIGVTRGLGDHDLKVHDSNIYIKPFLSSAPEVRIYDLSKYDHGSDDVLILATDGLWDVLSNEEVAEAITQFLPNCDPDDPHRYTLAAQDLVMRARGVLKDRGWRISNDRLGSGDDISVYVIPLIHGNKLS
notes: PPM1H phosphatase, human, full length; mNeon inserted into loop 1 (residues 115-133) at position 125; the plasmid is pET15b His SUMO mNeon PPM1H; His-SUMO removed by Ulp1 before gel filtration; also called WT PPM1H; HisSUMO-mNeon PPM1H; not shown: mNeon, internal (loop 1, at position 125), kept

The target in data set [1] is mNeon L66R PPM1H (human) (UniProt Q9ULR3). In words: MST; unlabelled Rab protein (16 serial dilutions) titrated against 100 nM fluorescent mNeon PPM1H variant; 30 min in the dark; Monolith NT.115; three independent measurements with different protein preparations.
Data set [2] addresses mNeon Δ37 PPM1H (human) (UniProt Q9ULR3). The data set is described as above.
The target in data set [3] is B2. Briefly: MST; WT Rab8A loaded with Mg-GDP (EDTA exchange), serially diluted against 100 nM mNeon PPM1H. The settings on record: both partners purified.
The target in data set [4] is B2. Briefly: MST; WT Rab8A loaded with Mg-GTP (EDTA exchange), serially diluted against 100 nM mNeon PPM1H. The settings on record: both partners purified.
Data set [5] deals with the molecule itself. Briefly: SEC; gel filtration (Superdex 200) of purified mNeon PPM1H after removal of His-SUMO.

Turning to “His Rab8A Q67L (full length, nonprenylated, nonphosphorylated) (from UniProt P61006 1-207) (natural protein)”, the dissociation constant (Kd) in data set [1] came to 5200 nM; in data set [2], 10500 nM.

In data set [1], “Thiophosphorylated His Rab8A Q67L (from UniProt P61006 1-207) (natural protein)” showed a Kd of 1100 nM.

For B1, the dissociation constant Kd in data set [3] is 3000 nM; in data set [4] it was 1000 nM.

For B2, the “stoichiometry N” value in data set [5] was determined as 2.

These data come from PMC12528898 (The Journal of Biological Chemistry, 2025).
